Patent US7816560B1, “Long chain n-alkyl compounds and oxa-derivatives thereof” (Thomas Jefferson University, priority 1999, dated 2010)

Amino acid sequences for entries named in this document (tags omitted).
UniProt Q16739, whole entry: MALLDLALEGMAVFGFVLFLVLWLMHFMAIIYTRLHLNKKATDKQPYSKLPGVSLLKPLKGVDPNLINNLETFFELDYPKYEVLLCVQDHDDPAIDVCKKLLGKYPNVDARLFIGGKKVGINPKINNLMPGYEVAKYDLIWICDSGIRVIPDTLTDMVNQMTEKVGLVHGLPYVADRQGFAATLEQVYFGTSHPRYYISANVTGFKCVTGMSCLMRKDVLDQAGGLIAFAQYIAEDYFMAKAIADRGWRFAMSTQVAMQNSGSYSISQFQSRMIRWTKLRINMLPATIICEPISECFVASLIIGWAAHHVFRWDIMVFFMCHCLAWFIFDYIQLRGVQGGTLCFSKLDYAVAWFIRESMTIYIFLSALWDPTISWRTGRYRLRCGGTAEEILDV

Key:
MDBK cells = experiment: Toxicity / cell cytotoxicity in MDBK cells; assay type: cell-based; details: for % Viability at 10 μM: N-alkyl DNJ at 10 μM; for % Viability at 100 μM: N-alkyl DNJ at 100 μM
[1] = target: ceramide glucosyl transferase (CerGlcT) (Homo sapiens, UniProt Q16739); experiment: Inhibition of ceramide glucosyl transferase / glycolipid synthesis; assay type: biochemical; details: read-out: CerGlcT (IC50); N-alkyl DNJ derivatives

Structure (SMILES)	% Viability at 10 μM (MDBK cells)	% Viability at 100 μM (MDBK cells)	IC50 [1]
CCCCCCCCCCCCCCCCCCN1C[C@H](O)[C@@H](O)[C@H](O)[C@H]1CO	84%	2%	4.1 µM
CCCCCCCCCCCCCCCCN1C[C@H](O)[C@@H](O)[C@H](O)[C@H]1CO	88%	4%	3.4 µM
CCCCCN1C[C@H](O)[C@@H](O)[C@H](O)[C@H]1CO	80%	70%	26.8 µM
